Results: ChEMBL document CHEMBL5257130, “Methyl and Fluorine Effects in Novel Orally Bioavailable Keap1-Nrf2 PPI Inhibitor” (ACS Med Chem Lett, 2023)

The chains behind the UniProt entries cited, without tags or fusion partners.
UniProt Q14145, whole entry: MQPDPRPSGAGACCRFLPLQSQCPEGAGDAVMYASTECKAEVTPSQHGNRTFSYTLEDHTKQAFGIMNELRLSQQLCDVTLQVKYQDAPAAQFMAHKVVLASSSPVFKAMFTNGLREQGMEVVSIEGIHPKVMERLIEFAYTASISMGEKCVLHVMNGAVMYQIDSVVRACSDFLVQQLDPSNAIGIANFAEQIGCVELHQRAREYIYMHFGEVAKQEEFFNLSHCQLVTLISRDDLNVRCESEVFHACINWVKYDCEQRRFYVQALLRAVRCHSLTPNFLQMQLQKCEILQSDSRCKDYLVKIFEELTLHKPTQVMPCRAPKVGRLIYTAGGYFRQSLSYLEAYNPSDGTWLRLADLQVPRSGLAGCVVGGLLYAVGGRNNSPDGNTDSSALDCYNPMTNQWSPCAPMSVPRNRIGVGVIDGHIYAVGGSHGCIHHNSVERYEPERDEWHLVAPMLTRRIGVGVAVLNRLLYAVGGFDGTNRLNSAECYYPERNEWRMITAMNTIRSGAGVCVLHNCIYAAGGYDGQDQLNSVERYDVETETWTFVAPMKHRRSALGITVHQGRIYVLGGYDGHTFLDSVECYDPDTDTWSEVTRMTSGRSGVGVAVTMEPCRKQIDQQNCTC

Columns and labels:
[1] = target: Kelch-like ECH-associated protein 1 (Homo sapiens) (UniProt Q14145)
[2] = target: Kelch-like ECH-associated protein 1 (Homo sapiens) (UniProt Q14145); remark: listed apart in the source

## Cc1ccc([C@@H](NC(=O)[C@@H](F)c2ccc3c(c2)CCCC3)[C@@H](C)C(=O)O)cc1
[1]
  deltaG: -9.4 kcal/mol
[2]
  deltaH: -8.2 kcal/mol
